Target: T1, SLC38A2 (Homo sapiens, UniProt Q96QD8)
T1 construct: expressed in transfected cells; host or cells: HY15549 cells with dox-inducible SNAT2
T1 sequence (Q96QD8 1-506): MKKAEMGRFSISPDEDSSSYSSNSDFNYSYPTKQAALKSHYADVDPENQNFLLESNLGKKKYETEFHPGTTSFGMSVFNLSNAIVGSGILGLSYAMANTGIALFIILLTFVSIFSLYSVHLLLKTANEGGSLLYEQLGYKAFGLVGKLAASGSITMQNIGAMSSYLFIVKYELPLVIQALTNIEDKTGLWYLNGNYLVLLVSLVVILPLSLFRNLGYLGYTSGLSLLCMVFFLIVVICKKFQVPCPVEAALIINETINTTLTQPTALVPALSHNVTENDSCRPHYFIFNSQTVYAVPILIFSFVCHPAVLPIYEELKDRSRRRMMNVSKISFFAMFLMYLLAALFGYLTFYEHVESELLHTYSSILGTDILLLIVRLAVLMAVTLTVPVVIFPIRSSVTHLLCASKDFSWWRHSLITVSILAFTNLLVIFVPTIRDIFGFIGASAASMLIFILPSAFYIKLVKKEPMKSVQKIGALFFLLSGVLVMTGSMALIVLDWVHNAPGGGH
Experiment: SLC38A2 activity measured by MeAIB uptake in HY15549 dox-inducible SNAT2 cells
Type: cell-based
Conditions: 20 μm compound, MeAIB 0.3 mM, 1 hour, vs vehicle (PBS), HY15549 cells expressing dox-inducible SLC38A2/SNAT2
Procedure: (A) Schematic depicting SLC38A2-dependent update of alanine structural analog, methyl α-aminoisobutyrate (MeAIB). […] (B) Total ion chromatogram (TIC) of HY15549 dox-inducible SNAT2 cells treated with 1 mM MeAIB for 24 hours compared to vehicle (PBS). […] HY15549 dox-inducible SNAT2 cells were cultured with a concentration gradient of MeAIB for 15 minutes (gray circles) or 60 minutes (black squares). (D) Western blot depicting SLC38A2 expression relative to doxycycline after 24 hours culture in HY15549 dox-inducible SNAT2 cells. (E) Intracellular MeAIB levels in HY15549 dox-inducible cells cultured with dox (+SNAT2, left bar) and without dox (KO, right bar) for 24 hours with 1 mM MeAIB. (F) Intracellular MeAIB levels in HY15549 dox-inducible cells cultured with vehicle, paroxetine (PXT, 20 μM), or sertraline (SRT, 20 μm) for 24 hours with 300 μM MeAIB.

## CNCCC(Oc1ccc(C(F)(F)F)cc1)c1ccccc1 (racemic) [fluoxetine]
  inhibition of MeAIB uptake (intracellular MeAIB levels): inhibited

— patent US20220275376A1, “TARGETING SLC38A2 IN PANCREATIC CANCER” (New York University, priority 2019, published 2022)
